Data as given in PMC10269775, “Penicillin-Binding Protein Occupancy Dataset for 18 β-Lactams and 4 β-Lactamase Inhibitors in Neisseria gonorrhoeae” (Microbiology Spectrum, 2023).
Read-outs that look alike come from different tables or passages of the source.

Legend:
[1] = system: N. gonorrhoeae ATCC 19424; experiment: MIC, CLSI broth microdilution; settings: strain ATCC 19424; ratio between the MIC and the minimum IC50 value
PBP3 [2] = target: T1, PBP3 (Neisseria gonorrhoeae, UniProt Q5FAB9); settings: strain ATCC 19424
T1 sequence (Q5FAB9 22-469): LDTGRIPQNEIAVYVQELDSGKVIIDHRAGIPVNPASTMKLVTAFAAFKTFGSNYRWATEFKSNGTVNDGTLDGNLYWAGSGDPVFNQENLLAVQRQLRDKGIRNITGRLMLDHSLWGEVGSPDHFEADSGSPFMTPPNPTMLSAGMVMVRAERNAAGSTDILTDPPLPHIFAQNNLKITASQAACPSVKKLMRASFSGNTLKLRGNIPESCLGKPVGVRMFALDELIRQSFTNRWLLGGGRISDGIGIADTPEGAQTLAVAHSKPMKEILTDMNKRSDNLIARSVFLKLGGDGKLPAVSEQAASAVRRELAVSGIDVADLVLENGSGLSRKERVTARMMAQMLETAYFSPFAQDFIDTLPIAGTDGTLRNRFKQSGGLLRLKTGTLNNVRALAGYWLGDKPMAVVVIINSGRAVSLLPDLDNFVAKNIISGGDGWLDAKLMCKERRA

PBP1, PBP2 and PBP3 [3] = format: binding, Neisseria gonorrhoeae ATCC 19424; settings: strain ATCC 19424; for Target Selectivity: selective if IC50 at least 4-fold lower than next most inhibited PBP
PBP1, PBP2 and PBP3 [4] = format: binding, Neisseria gonorrhoeae ATCC 49226; settings: strain ATCC 49226; for Target Selectivity: selective if IC50 at least 4-fold lower than next most inhibited PBP
PBP3 [5] = target: T1, PBP3; settings: strain ATCC 49226
[6] = system: N. gonorrhoeae ATCC 49226; experiment: MIC, CLSI broth microdilution; settings: strain ATCC 49226; ratio between the MIC and the minimum IC50 value
PBP3 [7] = target: T1, PBP3; settings: read-out: IC50 for PBP3; across both strains ATCC 19424 and ATCC 49226
PBP1, PBP2 and PBP3 [8] = settings: both strains; selective = IC50 at least 4-fold lower than next most inhibited PBP
[9] = read-out: IC50 PBP3, membrane preparation, 30 min drug then Bocillin FL

Q: How did the “MIC/min. IC50” value [1] turn out when `C[C@@H](O)[C@H]1C(=O)N2C(C(=O)O)=C(S[C@@H]3CN[C@H](C(=O)N(C)C)C3)[C@H](C)[C@H]12` [MEM, meropenem] was run?
A: The value was 0.27.

Q: And the IC50 (PBP3 [2]; read-out: IC50 PBP3 (Table S1))?
A: Its IC50 is 78.2 nM.

Q: And the IC50 (PBP3 [2]; [9])?
A: Its IC50 is 52.2 nM.

Q: And the min. IC50 (minimum observed IC50 value) (PBP1, PBP2 and PBP3 [3])?
A: The min. IC50 (minimum observed IC50 value) was 0.03 µg/mL.

Q: What about the “Target Selectivity” value (PBP1, PBP2 and PBP3 [3]) of the same compound?
A: The value was “PBP2 and 3”.

Q: And the min. IC50 (minimum observed IC50 value) (PBP1, PBP2 and PBP3 [4])?
A: The min. IC50 (minimum observed IC50 value) was 0.01 µg/mL.

Q: What about the “Target Selectivity” value (PBP1, PBP2 and PBP3 [4]) of the same compound?
A: Its value is “PBP2 and 3”.

Q: And the IC50 (PBP3 [5]; [9])?
A: The IC50 was 26.1 nM.

Q: And the “MIC/min. IC50” value [6]?
A: Its value is 1.60.

Q: Which results are given for `CCO/N=C(\C(=O)N[C@@H]1C(=O)N2C(C(=O)[O-])=C(Sc3nc(-c4cc[n+](C)cc4)cs3)CS[C@H]12)c1nsc(N)n1` [CPT, ceftaroline]?
A: MIC/min. IC50 [1]: 0.21; Target Selectivity (PBP1, PBP2 and PBP3 [4]): PBP2; MIC/min. IC50 [6]: 2.37

Q: For `Cn1c(N)c(NC(=O)NCCN)c[n+]1CC1=C(C(=O)O)N2C(=O)[C@@H](NC(=O)/C(=N\OC(C)(C)C(=O)[O-])c3nsc(N)n3)[C@H]2SC1` [TOL, ceftolozane], which “MIC/min. IC50” value [1] is on record?
A: The value was 0.80.

Q: What about the “Target Selectivity” value (PBP1, PBP2 and PBP3 [4]) of the same compound?
A: Its value is “PBP2”.

Q: What about the “MIC/min. IC50” value [6] of the same compound?
A: Its value is 0.93.

Q: Which results are given for `C[C@@H](O)[C@H]1C(=O)N2C(C(=O)O)=C(S[C@@H]3CN[C@H](C(=O)Nc4cccc(C(=O)O)c4)C3)[C@H](C)[C@H]12` [ETP, ertapenem]?
A: MIC/min. IC50 [1]: 0.20; IC50 (PBP3 [2]; read-out: IC50 PBP3 (Table S1)): 42.1 nM; IC50 (PBP3 [2]; [9]): 63.1 nM; min. IC50 (minimum observed IC50 value) (PBP1, PBP2 and PBP3 [3]): 0.02 µg/mL; Target Selectivity (PBP1, PBP2 and PBP3 [3]): PBP2 and 3; min. IC50 (minimum observed IC50 value) (PBP1, PBP2 and PBP3 [4]): 0.01 µg/mL; Target Selectivity (PBP1, PBP2 and PBP3 [4]): PBP2 and 3; IC50 (PBP3 [5]; [9]): 21 nM; MIC/min. IC50 [6]: 0.80

Q: Which results are given for `CC1(C)S[C@@H]2[C@H](NC(=O)C(C(=O)O)c3ccccc3)C(=O)N2[C@H]1C(=O)O` (stereo partly drawn) [CAR, carbenicillin]?
A: MIC/min. IC50 [1]: 0.25; IC50 (PBP3 [2]; read-out: IC50 PBP3 (Table S1)): 1690 nM; IC50 (PBP3 [2]; [9]): 1510 nM; Target Selectivity (PBP1, PBP2 and PBP3 [4]): PBP3; IC50 (PBP3 [5]; read-out: IC50 PBP3 (Table S1)): 925 nM; MIC/min. IC50 [6]: 1.43

Q: What does the source list for `CC(C)(O/N=C(\C(=O)N[C@@H]1C(=O)N2C(C(=O)[O-])=C(C[n+]3ccccc3)CS[C@H]12)c1csc(N)n1)C(=O)O` [CAZ, ceftazidime]?
A: MIC/min. IC50 [1]: 1.60; Target Selectivity (PBP1, PBP2 and PBP3 [4]): PBP2; MIC/min. IC50 [6]: 3.20

Q: Which IC50 (PBP3 [2]; [9]) does the source give for `CO/N=C(\C(=O)N[C@@H]1C(=O)N2C(C(=O)O)=C(CSc3nc(=O)c(=O)[nH]n3C)CS[C@H]12)c1csc(N)n1` [CRO, ceftriaxone] here?
A: Its IC50 is 126 nM.

Q: And the IC50 (PBP3 [5]; [9])?
A: The IC50 was 126 nM.

Q: Which results are given for `CO[C@@]1(NC(=O)Cc2cccs2)C(=O)N2C(C(=O)O)=C(COC(N)=O)CS[C@@H]21` [FOX, cefoxitin]?
A: MIC/min. IC50 [1]: 25.00; IC50 (PBP3 [2]; [9]): 23.4 nM; Target Selectivity (PBP1, PBP2 and PBP3 [3]): PBP3; Target Selectivity (PBP1, PBP2 and PBP3 [4]): PBP3; IC50 (PBP3 [7]): 23.4 nM; IC50 (PBP3 [5]; [9]): 23.4 nM; MIC/min. IC50 [6]: 50.00

Q: Which “MIC/min. IC50” value [1] does the source give for `NC(=O)[C@@H]1CC[C@@H]2CN1C(=O)N2OS(=O)(=O)O` [AVI, avibactam] here?
A: Its value is 54.94.

Q: And the “Target Selectivity” value (PBP1, PBP2 and PBP3 [3])?
A: Its value is “PBP3”.

Q: And the “Target Selectivity” value (PBP1, PBP2 and PBP3 [4])?
A: The value was “PBP3”.

Q: And the “MIC/min. IC50” value [6]?
A: Its value is 94.81.

Q: And the PBP selectivity (PBP1, PBP2 and PBP3 [8])?
A: Its PBP selectivity is “PBP3 selective binding”.

Q: Which results are given for `C[C@@H](O)[C@H]1C(=O)N2C(C(=O)O)=C(SCCN=CN)C[C@H]12` [IPM, imipenem]?
A: MIC/min. IC50 [1]: 3.20; IC50 (PBP3 [2]; [9]): 33.4 nM; Target Selectivity (PBP1, PBP2 and PBP3 [3]): PBP3; Target Selectivity (PBP1, PBP2 and PBP3 [4]): PBP3; IC50 (PBP3 [5]; [9]): 33.4 nM; MIC/min. IC50 [6]: 6.40

Q: With `C=CC1=C(C(=O)O)N2C(=O)[C@@H](NC(=O)/C(=N\OCC(=O)O)c3csc(N)n3)[C@H]2SC1` [CFM, cefixime] as the compound, how does the “MIC/min. IC50” value [1] read?
A: Its value is 0.40.

Q: What about the “Target Selectivity” value (PBP1, PBP2 and PBP3 [4]) of the same compound?
A: Its value is “PBP2”.

Q: And the “MIC/min. IC50” value [6]?
A: Its value is 0.80.

Q: Which results are given for `C[C@]1(Cn2ccnn2)[C@H](C(=O)O)N2C(=O)C[C@H]2S1(=O)=O` [TZ, tazobactam]?
A: MIC/min. IC50 [1]: 0.12; Target Selectivity (PBP1, PBP2 and PBP3 [4]): PBP2; MIC/min. IC50 [6]: 0.69; PBP selectivity (PBP1, PBP2 and PBP3 [8]): selective for PBP2

Q: With `CC1(C)S[C@@H]2[C@H](/N=C/N3CCCCCC3)C(=O)N2[C@H]1C(=O)O` [MEC, amdinocillin] as the compound, how does the “MIC/min. IC50” value [1] read?
A: Its value is 0.75.

Q: And the IC50 (PBP3 [2]; [9])?
A: Its IC50 is 36600 nM.

Q: And the “Target Selectivity” value (PBP1, PBP2 and PBP3 [4])?
A: Its value is “PBP2”.

Q: And the “MIC/min. IC50” value [6]?
A: Its value is 2.72.

Q: For `O=C(NC1CCNCC1)[C@@H]1CC[C@@H]2CN1C(=O)N2OS(=O)(=O)O` [REL, relebactam], which “MIC/min. IC50” value [1] is on record?
A: The value was 403.15.

Q: What about the “Target Selectivity” value (PBP1, PBP2 and PBP3 [3]) of the same compound?
A: The value was “PBP3”.

Q: And the “Target Selectivity” value (PBP1, PBP2 and PBP3 [4])?
A: Its value is “PBP3”.

Q: And the “MIC/min. IC50” value [6]?
A: Its value is 390.84.

Q: And the PBP selectivity (PBP1, PBP2 and PBP3 [8])?
A: Its PBP selectivity is “PBP3 selective binding”.
